Laboratory results reported in US20140356285A1, “COMPOSITIONS AND METHODS RELATED TO TISSUE TARGETING” (THE BOARD OF REGENTS OF THE UNIVERSITY OF TEXAS SYSTEM, priority 2011, published 2014).
Entries after “also recorded” stand apart in the source; their conditions may differ.

Biological target: T1, PR-3 (Homo sapiens, UniProt P24158)
T1 construct: purchased Sigma
T1 sequence (P24158 28-248 limits assumed): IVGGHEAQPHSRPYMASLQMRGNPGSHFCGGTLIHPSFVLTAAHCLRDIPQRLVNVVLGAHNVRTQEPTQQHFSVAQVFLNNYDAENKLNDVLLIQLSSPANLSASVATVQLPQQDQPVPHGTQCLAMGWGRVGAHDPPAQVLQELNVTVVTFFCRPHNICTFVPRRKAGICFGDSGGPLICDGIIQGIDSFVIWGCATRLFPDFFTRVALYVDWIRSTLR
Assay: ELISA of RAGE binding to immobilized PR-3
Conditions: extracellular portion of human RAGE, endogenous PR-3 (FIG. 4C, 4D)
Procedure: Protein Binding Assays. Titration of anti-peptide antibodies was performed on Maxisorb Immunoplates (Nunc) coated with 1 μg/mL of peptides or proteins. Incubation with primary antibodies was followed by signal detection with goat anti-rabbit HRP-conjugated IgG (Sigma-Aldrich; St. Louis, Mo.) and 3, 3′,5,5′-tetramethylbenzidine (TMB) (Calbiochem). To evaluate protein-protein interactions, the inventors performed ELISA on 96-well plates coated with 1 μg/mL of recombinant candidate receptors, as indicated. Blocking of exposed non-specific binding sites was performed with PBS containing either 2% gelatin or 1% BSA, as indicated. Ligand candidates were added to the wells at different concentrations, as indicated. Specific binding was detected by incubation with appropriate primary and secondary antibodies. For capture experiments, immobilized His6-ANXA2 and ANXAS were incubated with recombinant GST-prohibitin. Protein interaction, assessed by immunoblotting with anti-GST antibody, was detected with anti-rabbit or anti-goat secondary alkaline phosphatase-conjugated polyclonal antibodies.

Question: For “RAGE: extracellular portion of human RAGE, recombinant Fc-tagged protein”, which “binding of RAGE to immobilized PR-3” value is on record?
Answer: The value was “bound to immobilized PR-3; also recorded: concentration-dependent”.
